For the assay, the target named is Ku70/80 (human, UniProt P12956 2-609; P13010 2-732). Put plainly: co-immunoprecipitation with anti-FLAG antibody from transfected SKBR3 cells, immunoblot. On the procedure:
Communoprecipitation. […] Complementary coimmunoprecipitation of HOXB7-YFP with its binding proteins was done with monoclonal antibodies to human DNA-PKcs and human Ku86 (clones H-163 and C-20, respectively; Santa Cruz Biotechnology) as described (12). To verify the interaction between endogenous HOXB7 with Ku70, Ku80, and DNA-PK under physiologic conditions and the effect of DNA depletion, 1 to 2 mg of whole cell lysates of MCF-7 (with or without ethidium bromide) were subjected to immunoprecipitation with Ku70 and Ku80 antibodies, the immune complexes were loaded onto 4% to 12% NuPAGE gels (Invitrogen) and immunoblotted with anti-HsKu70 (clone 2C3.11; Novus Biologicals), Ku86 (C-20; Santa Cruz Biotechnology), or anti-HOXB7 rabbit polyclonal antibodies (Invitrogen).
To define the region of HOXB7 that interacts with Ku70/80 proteins, full-length Fl-HOXB7 and HOXB7 with deletions of helix 3 of the homeodomain (HOXB7-Δh3) or of the glutamic acid tail (HOXB7-ΔGlu; FIG. 10B, top; ref. 11) were transfected into SKBR3 cells, and cell lysates were subjected to coimmunoprecipitation with FLAG antibody (FIG. 10B, bottom).
For orientation: Immunoblotting shows a protein as a band on a membrane.

By UniProt entry, the sequences of proteins in these tests, tags left out. Residues count along the entry.
UniProt P12956, 2-609 limits assumed, chain 1 of 2: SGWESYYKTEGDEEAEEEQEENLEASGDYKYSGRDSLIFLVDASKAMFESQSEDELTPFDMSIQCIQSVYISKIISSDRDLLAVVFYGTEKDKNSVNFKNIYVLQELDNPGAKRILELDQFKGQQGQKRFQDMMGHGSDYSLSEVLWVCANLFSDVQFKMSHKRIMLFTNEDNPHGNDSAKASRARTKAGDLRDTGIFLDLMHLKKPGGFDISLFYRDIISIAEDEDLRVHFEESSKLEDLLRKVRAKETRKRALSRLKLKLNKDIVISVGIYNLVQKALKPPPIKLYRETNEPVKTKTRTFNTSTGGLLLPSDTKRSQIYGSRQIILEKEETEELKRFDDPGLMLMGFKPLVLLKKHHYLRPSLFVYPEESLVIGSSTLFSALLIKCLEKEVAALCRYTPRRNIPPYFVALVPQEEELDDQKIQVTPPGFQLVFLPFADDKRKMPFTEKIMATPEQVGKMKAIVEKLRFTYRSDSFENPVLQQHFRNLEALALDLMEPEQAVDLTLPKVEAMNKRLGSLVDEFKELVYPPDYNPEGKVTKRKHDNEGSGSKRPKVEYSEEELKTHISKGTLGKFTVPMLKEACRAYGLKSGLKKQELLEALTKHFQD
Ku70/80, UniProt P13010, 2-732 limits assumed, chain 2 of 2: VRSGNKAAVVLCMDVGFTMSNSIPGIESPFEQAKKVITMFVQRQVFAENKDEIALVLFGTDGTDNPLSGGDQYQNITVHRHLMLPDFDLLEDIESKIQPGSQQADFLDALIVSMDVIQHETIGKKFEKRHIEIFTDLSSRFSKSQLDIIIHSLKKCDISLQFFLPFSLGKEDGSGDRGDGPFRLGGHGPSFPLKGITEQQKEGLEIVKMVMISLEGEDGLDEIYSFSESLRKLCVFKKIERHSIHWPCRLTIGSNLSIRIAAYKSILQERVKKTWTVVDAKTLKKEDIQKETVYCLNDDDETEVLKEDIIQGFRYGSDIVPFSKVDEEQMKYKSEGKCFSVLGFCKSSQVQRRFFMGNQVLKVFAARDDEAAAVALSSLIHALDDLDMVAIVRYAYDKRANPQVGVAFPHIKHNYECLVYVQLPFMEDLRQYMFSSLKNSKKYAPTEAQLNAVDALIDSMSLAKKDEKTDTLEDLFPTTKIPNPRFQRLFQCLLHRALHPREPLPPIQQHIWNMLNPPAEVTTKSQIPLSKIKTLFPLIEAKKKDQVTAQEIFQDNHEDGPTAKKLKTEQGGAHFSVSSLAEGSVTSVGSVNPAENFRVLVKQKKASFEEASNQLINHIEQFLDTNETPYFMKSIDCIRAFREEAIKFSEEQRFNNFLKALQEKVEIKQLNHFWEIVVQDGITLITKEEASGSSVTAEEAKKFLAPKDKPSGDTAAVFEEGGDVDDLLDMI

The results in this text go back to patent US20130333059A1 (Johns Hopkins, published 2013).

B1: HOXB7-Δh3 (other, UniProt P09629 1-217, looked up)
chain: MSSLYYANTLFSKYPASSSVFATGAFPEQTSCAFASNPQRPGYGAGSGASFAASMQGLYPGGGGMAGQSAAGVYAAGYGLEPSSFNMHCAPFEQNLSGVCPGDSAKAAGAKEQRDSDLAAESNFRIYPWMRSSGTDRKRGRQTYTRYQTLELEKEFHYNRYLTRRRRIEIAHTLCLTENKTAGPGTTGQDRAEAEEEEEE
notes: also called HOXB7 with deletion of helix 3 of the homeodomain; HOXB7 lacking helix 3; not shown: FLAG tag
Regarding B1, the binding result is “no binding”.
